## Measured affinities in a library of Ab-14 heavy chain variants

All variants were tested on one target, the spike HR2 peptide PDVDLGDISGINAS (SARS-CoV-2).

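The starting antibody came from a phage panning campaign against this peptide. This is the validation round: designs drawn from the data on random variants, tested in the same kind of assay. Several design methods are mixed in this list. The assay is AlphaSeq: two haploid yeast populations carry antibody and antigen on their surface. After mating in shaken culture at 30 °C for 16 h, diploids were selected and their barcode pairs sequenced. Read counts were normalised to the haploid input and turned into Kd by a linear fit to BCL2-family pairs of known affinity, for each replicate. Mating was done six times.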

Ab-14 is the parent antibody, in scFv form: VH, then three GGGGS repeats, then VL. The light chain is unchanged in all variants.
VH: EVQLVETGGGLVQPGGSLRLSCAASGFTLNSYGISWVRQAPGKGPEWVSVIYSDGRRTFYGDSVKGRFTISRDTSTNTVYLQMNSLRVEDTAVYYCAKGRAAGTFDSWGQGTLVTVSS
VL: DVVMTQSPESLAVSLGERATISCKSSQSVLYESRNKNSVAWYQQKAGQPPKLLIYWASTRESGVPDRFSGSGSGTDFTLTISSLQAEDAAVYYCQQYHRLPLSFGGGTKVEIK

Substitutions are numbered in sequence along the VH above, starting at 1 (not Kabat). This list holds designs with at most six substitutions. Scale: log10 of Kd in nM, estimated from mating counts; low values are strong binders. Replicates are averaged; those with no signal do not enter the mean. "no signal" means that the variant was in the library but no mating with the target was seen in any replicate; the authors take this as a sign of poor binding, and no number exists. The list is sorted by this average, lowest first, undetected variants last. Nonspecific signal, from three strains lacking the peptide, appeared in 1% of pairings of all heavy chain designs, centred on 2.08 (5% of these signals below 0.84); values are not corrected for it. Values of this round are not directly comparable with the first-round values of the same sequences. The authors averaged sequences with at least three values out of six and counted those with two or fewer as poor binders. The parent sequence was in this pool as ten entries: three were never detected, three once, and four in most replicates, with averages from 0.34 to 2.37.

For F27K S53A R56K, the assay gave -0.36 (5 of 6 replicates).
For S53A R100Q S107T, the assay gave -0.13 (6 of 6 replicates).
For T28E R100V A101I, the assay gave -0.11 (6 of 6 replicates).
For T28S R56I G61S, the assay gave -0.05 (6 of 6 replicates).
For F27I S31D R56M, the assay gave -0.05 (6 of 6 replicates).
For T28N S31E A101T, the assay gave -0.01 (6 of 6 replicates).
For T28D S31E S63P A101T, the assay gave 0.08 (6 of 6 replicates).
For G26P T28D G61A A101T, the assay gave 0.16 (6 of 6 replicates).
For T28D F59A G61R A101T, the assay gave 0.27 (6 of 6 replicates).
For T28S S63D R100V A101E, the assay gave 0.28 (6 of 6 replicates).
For T28S S31E S63Q A101T S107K, the assay gave 0.31 (6 of 6 replicates).
For F27N S31E G61T A101N, the assay gave 0.43 (6 of 6 replicates).
For F27P S31E G61T A101T, the assay gave 0.43 (6 of 6 replicates).
For T28E G61A R100K S107L, the assay gave 0.59 (6 of 6 replicates).
For T28G G61S, the assay gave 0.62 (6 of 6 replicates).
For R56L G61H R100K A101T, the assay gave 0.64 (6 of 6 replicates).
For T28Q S31E R100K S107R, the assay gave 0.66 (6 of 6 replicates).
For S31E F59M A101F, the assay gave 0.75 (6 of 6 replicates).
For T28W S31E G61H A101T S107T, the assay gave 0.76 (6 of 6 replicates).
For S31E T58Q, the assay gave 0.84 (6 of 6 replicates).
For S31E G61S A101S, the assay gave 0.86 (6 of 6 replicates).
For T28N G61I R100H A101V, the assay gave 0.87 (4 of 6 replicates).
For T28S S31T G61K R100K A101T, the assay gave 1.00 (5 of 6 replicates).
For G26K T28S G61Q R100E, the assay gave 1.06 (1 of 6 replicates).
For F27Q G61S A101L S107T, the assay gave 1.23 (6 of 6 replicates).
For F27Y S31E G61S A101Y, the assay gave 1.25 (6 of 6 replicates).
For L29P G61S T104S, the assay gave 1.32 (6 of 6 replicates).
For G26S S53A R100K, the assay gave 1.41 (6 of 6 replicates).
For S31E R100G, the assay gave 1.58 (6 of 6 replicates).
For T58A, the assay gave 1.70 (3 of 6 replicates).
For T28Q G61Q S63Q R100E, the assay gave 1.72 (6 of 6 replicates).
For S53A G55P R100G, the assay gave 1.75 (1 of 6 replicates).
For T28W G61D R100Q A101L, the assay gave 1.75 (4 of 6 replicates).
For R100H, the assay gave 1.78 (6 of 6 replicates).
For F27T N30E T58V G61N, the assay gave 1.93 (1 of 6 replicates).
For T28Q S53F G103L T104R D106C, the assay gave 2.19 (1 of 6 replicates).
For T28E G61A S63H A101T S107T, the assay gave 2.26 (5 of 6 replicates).
For G26L T28S S31E G61R A101T, the assay gave 2.48 (5 of 6 replicates).
For R100S F105V, the assay gave no signal (0 of 6 replicates).
For G61T R100K A101Q A102T, the assay gave no signal (0 of 6 replicates).
For G26T F59S T104A, the assay gave no signal (0 of 6 replicates).
For S31E S35E G99H G103V S107Q, the assay gave no signal (0 of 6 replicates).
For R56Y F59V G61N D106E, the assay gave no signal (0 of 6 replicates).
For N30D T58C G61D R100S A101G, the assay gave no signal (0 of 6 replicates).
For L29V D54C D106T S107V, the assay gave no signal (0 of 6 replicates).
For N30E S31E K65L D106L, the assay gave no signal (0 of 6 replicates).
For G61S A102H G103C, the assay gave no signal (0 of 6 replicates).
For N30E G61I D106T, the assay gave no signal (0 of 6 replicates).
For T28S S63D A101D F105P, the assay gave no signal (0 of 6 replicates).
For R57Y G61D R100Q A101L S107R, the assay gave no signal (0 of 6 replicates).

8 of these entries, quoted again:

changes,"mean, log10 nM",replicates with signal
F27I S31D R56M,-0.05,6/6
S31E T58Q,0.84,6/6
T28S S31T G61K R100K A101T,1.00,5/6
F27Y S31E G61S A101Y,1.25,6/6
R100S F105V,no signal,0/6
T28D F59A G61R A101T,0.27,6/6
G61T R100K A101Q A102T,no signal,0/6
F27T N30E T58V G61N,1.93,1/6

Reference: Li et al. 2023, doi:10.1038/s41467-023-39022-2. File: FLAb, binding data.